{
  "source": "patent US5366975A",
  "about": "“Invertebrate phenylethanolamine transporter and the use thereof” (priority 1992, dated 1994)",
  "test_system": "tobacco hornworms (Manducca sexta)",
  "assay": "Antifeeding assay on sprayed tomato leaves",
  "assay_type": "in vivo, Manduca sexta",
  "data": [
    {"compound": "CCN(CCCl)Cc1ccccc1C", "values": [
      {"measurement": "RANK ORDER ANTIFEEDING EFFECT IN MANDUCA", "setting": "Table 1, rank order of potency", "result": "GBR > COC = DMI = AMT > DSP = XYL ="},
      {"measurement": "% leaf remaining", "setting": "high (approximately 1-3%) concentrations, tomato leaves, M. sexta larvae", "result": 100, "unit": "%"}
    ]}
  ]
}
